Assay results: ChEMBL document CHEMBL4665801, “Pyrazole-Based Lactate Dehydrogenase Inhibitors with Optimized Cell Activity and Pharmacokinetic Properties” (J Med Chem, 2020)

What was measured:
[1] = Selectivity ratio of IC50 for inhibition of porcine heart MDH to IC50 for inhibition of recombinant human LDHA
[2] = Selectivity ratio of IC50 for inhibition of porcine heart MDH to IC50 for inhibition of recombinant human LDHB

| Ratio IC50 [1] | Ratio IC50 [2] | SMILES |
| --- | --- | --- |
| > 2500 | > 2500 | Cc1ncc(C#Cc2cccc(-c3nn(-c4nc(C(=O)O)cs4)c(CC4CC4)c3Cc3ccc(S(N)(=O)=O)c(F)c3)c2)s1 |
| > 2500 | > 2500 | Cc1nc(C#Cc2cccc(-c3nn(-c4nc(C(=O)O)cs4)c(CCC4CC4)c3Cc3ccc(S(N)(=O)=O)c(F)c3)c2)cs1 |
| > 2500 | > 2500 | Cc1cnc(C#Cc2cccc(-c3nn(-c4nc(C(=O)O)cs4)c(CCC4CC4)c3Cc3ccc(S(N)(=O)=O)c(F)c3)c2)s1 |
| > 2500 | > 2500 | Cc1cc(C)c(C#Cc2cccc(-c3nn(-c4nc(C(=O)O)cs4)c(CC4CC4)c3Cc3ccc(S(N)(=O)=O)c(F)c3)c2)s1 |
| > 2500 | > 2500 | Cc1cc(C#Cc2cccc(-c3nn(-c4nc(C(=O)O)cs4)c(CC4CC4)c3Cc3ccc(S(N)(=O)=O)c(F)c3)c2)c(C)s1 |
| > 2500 | > 2500 | Cc1ccsc1C#Cc1cccc(-c2nn(-c3nc(C(=O)O)cs3)c(CC3CC3)c2Cc2ccc(S(N)(=O)=O)c(F)c2)c1 |
| > 2500 | > 2500 | C/C=C/c1cc(-c2nn(-c3nc(C(=O)O)cs3)c(CC3CC3)c2Cc2ccc(S(N)(=O)=O)c(F)c2)ccc1F |
| > 2500 | > 2500 | NS(=O)(=O)c1ccc(Cc2c(-c3cccc(C#Cc4ccc(C5CC5)s4)c3)nn(-c3nc(C(=O)O)cs3)c2CCC2CC2)cc1F |
| > 2500 | > 2500 | NS(=O)(=O)c1ccc(Cc2c(-c3ccc(F)c(C#CCCO)c3)nn(-c3nc(C(=O)O)cs3)c2CC2CC2)cc1F |
| > 2500 | > 2500 | Cc1cc(C#Cc2cccc(-c3nn(-c4nc(C(=O)O)cs4)c(CCC4CC4)c3Cc3ccc(S(N)(=O)=O)c(F)c3)c2)c(C)s1 |
| > 2500 | > 2500 | NS(=O)(=O)c1ccc(Cc2c(-c3cccc(-c4ccccc4)c3)nn(-c3nc(C(=O)O)cs3)c2CC(F)(F)F)cc1 |
| > 2500 | > 2500 | Cc1ccc(C#Cc2cccc(-c3nn(-c4nc(C(=O)O)cs4)c(CC4CC4)c3Cc3ccc(S(N)(=O)=O)c(F)c3)c2)o1 |
| > 2500 | > 2500 | Cc1nc(C#Cc2cccc(-c3nn(-c4nc(C(=O)O)cs4)c(CC4CC4)c3Cc3ccc(S(N)(=O)=O)c(F)c3)c2)cs1 |
| > 2500 | > 2500 | NS(=O)(=O)c1ccc(Cc2c(-c3ccc(F)c(-c4ccccc4)c3)nn(-c3nc(C(=O)O)cs3)c2CC2CC2)cc1 |
| > 2500 | > 2500 | NS(=O)(=O)c1ccc(Cc2c(-c3ccc(F)c(-c4ccccc4)c3)nn(-c3nc(C(=O)O)cs3)c2CC2CC2)cc1F |
| > 2500 | > 2500 | CC(F)C#Cc1cc(-c2nn(-c3nc(C(=O)O)cs3)c(CC3CC3)c2Cc2ccc(S(N)(=O)=O)c(F)c2)ccc1F (stereo unspecified) |
| > 2500 | > 2500 | NS(=O)(=O)c1ccc(Cc2c(-c3cccc(C#Cc4ccc(C5CC5)s4)c3)nn(-c3nc(C(=O)O)cs3)c2CC2CC2)cc1F |
| > 2500 | > 2500 | NS(=O)(=O)c1ccc(Cc2c(-c3ccc(F)c(C#CCC4CCCC4)c3)nn(-c3nc(C(=O)O)cs3)c2CC2CC2)cc1F |
| > 2500 | > 2500 | NS(=O)(=O)c1ccc(Cc2c(-c3cccc(-c4ccccc4)c3)nn(-c3nc(C(=O)O)cs3)c2CC2CC2(F)F)cc1 (stereo unspecified) |
| > 2500 | > 2500 | Cc1cnc(C#Cc2cccc(-c3nn(-c4nc(C(=O)O)cs4)c(CC4CC4)c3Cc3ccc(S(N)(=O)=O)c(F)c3)c2)o1 |
| > 2500 | > 2500 | CC(C)(C)c1ccc(C#Cc2cc(-c3nn(-c4nc(C(=O)O)cs4)c(CC4CC4)c3Cc3ccc(S(N)(=O)=O)c(F)c3)ccc2F)s1 |
| > 2500 | > 2500 | NS(=O)(=O)c1ccc(Cc2c(-c3ccc(F)c(/C=C/C4CCCC4)c3)nn(-c3nc(C(=O)O)cs3)c2CC2CC2)cc1F |
| > 2500 | > 2500 | NS(=O)(=O)c1ccc(Cc2c(-c3ccc(F)c(/C=C/C4CC4)c3)nn(-c3nc(C(=O)O)cs3)c2CC2CC2)cc1F |
| > 2500 | > 2500 | CC(C)c1ccc(C#Cc2cccc(-c3nn(-c4nc(C(=O)O)cs4)c(CC4CC4)c3Cc3ccc(S(N)(=O)=O)c(F)c3)c2)s1 |
| > 2500 | > 2500 | COCC#Cc1cc(-c2nn(-c3nc(C(=O)O)cs3)c(CC3CC3)c2Cc2ccc(S(N)(=O)=O)c(F)c2)ccc1F |
| > 2500 | > 2500 | Cc1ccc(C#Cc2cc(-c3nn(-c4nc(C(=O)O)cs4)c(CC4CC4)c3Cc3ccc(S(N)(=O)=O)c(F)c3)ccc2F)o1 |

The next lines start with the molecule.

| SMILES | Ratio IC50 [1] | Ratio IC50 [2] |
| --- | --- | --- |
| NS(=O)(=O)c1ccc(Cc2c(-c3ccc(F)c(C#CC(F)(F)F)c3)nn(-c3nc(C(=O)O)cs3)c2CC2CC2)cc1F | > 2500 | > 2500 |
| NS(=O)(=O)c1ccc(Cc2c(-c3cccc(-c4ccccc4)c3)nn(-c3nc(C(=O)O)cs3)c2CC2CC2)c(F)c1 | > 2500 | > 2500 |
| CCCC#Cc1cc(-c2nn(-c3nc(C(=O)O)cs3)c(CC3CC3)c2Cc2ccc(S(N)(=O)=O)c(F)c2)ccc1F | > 2500 | > 2500 |
| NS(=O)(=O)c1ccc(Cc2c(-c3cccc(-c4ccccc4)c3)nn(-c3nc(C(=O)O)cs3)c2CCC2CC2)cc1 | > 2500 | > 2500 |
| Cn1cc(C#Cc2cc(-c3nn(-c4nc(C(=O)O)cs4)c(CC4CC4)c3Cc3ccc(S(N)(=O)=O)c(F)c3)ccc2F)cn1 | > 2500 | > 2500 |
| NS(=O)(=O)c1ccc(Cc2c(-c3ccc(F)c(C#CC4CCOC4)c3)nn(-c3nc(C(=O)O)cs3)c2CC2CC2)cc1F (stereo unspecified) | > 2500 | > 2500 |
| NS(=O)(=O)c1ccc(Cc2c(-c3ccc(F)c(C#CCC4CC4)c3)nn(-c3nc(C(=O)O)cs3)c2CC2CC2)cc1F | > 2500 | > 2500 |
| Cn1cncc1C#Cc1cc(-c2nn(-c3nc(C(=O)O)cs3)c(CC3CC3)c2Cc2ccc(S(N)(=O)=O)c(F)c2)ccc1F | > 2500 | > 2500 |
| NS(=O)(=O)c1ccc(Cc2c(-c3ccc(F)c(C#CC(F)F)c3)nn(-c3nc(C(=O)O)cs3)c2CC2CC2)cc1F | > 2500 | > 2500 |
| CC(C)(C)C#Cc1cc(-c2nn(-c3nc(C(=O)O)cs3)c(CC3CC3)c2Cc2ccc(S(N)(=O)=O)c(F)c2)ccc1F | > 2500 | > 2500 |
| N#CC#Cc1cc(-c2nn(-c3nc(C(=O)O)cs3)c(CC3CC3)c2Cc2ccc(S(N)(=O)=O)c(F)c2)ccc1F | > 2500 | > 2500 |
| NS(=O)(=O)c1ccc(Cc2c(-c3ccc(F)c(C#CC4CCC4)c3)nn(-c3nc(C(=O)O)cs3)c2CC2CC2)cc1F | > 2500 | > 2500 |
| Cc1ccc(C#Cc2cc(-c3nn(-c4nc(C(=O)O)cs4)c(CC4CC4)c3Cc3ccc(S(N)(=O)=O)c(F)c3)ccc2F)s1 | > 2500 | > 2500 |
| CC#Cc1cc(-c2nn(-c3nc(C(=O)O)cs3)c(CC3CC3)c2Cc2ccc(S(N)(=O)=O)c(F)c2)ccc1F | > 2500 | > 2500 |
| NS(=O)(=O)c1ccc(Cc2c(-c3ccc(F)c(C#CCN4CCCC4)c3)nn(-c3nc(C(=O)O)cs3)c2CC2CC2)cc1F | > 2500 | > 2500 |
| CC(C)C#Cc1cc(-c2nn(-c3nc(C(=O)O)cs3)c(CC3CC3)c2Cc2ccc(S(N)(=O)=O)c(F)c2)ccc1F | > 2500 | > 2500 |

| SMILES | Ratio IC50 [1] | Ratio IC50 [2] |
| --- | --- | --- |
| NS(=O)(=O)c1ccc(Cc2c(-c3cccc(C#Cc4ccc(C(F)(F)F)s4)c3)nn(-c3nc(C(=O)O)cs3)c2CC2CC2)cc1F | > 2500 | > 2500 |
| NS(=O)(=O)c1ccc(Cc2c(-c3ccc(F)c(C#Cc4cccs4)c3)nn(-c3nc(C(=O)O)cs3)c2CC2CC2)cc1F | > 2500 | > 2500 |
| CC#Cc1cccc(-c2nn(-c3nc(C(=O)O)cs3)c(CC3CC3)c2Cc2ccc(S(N)(=O)=O)c(F)c2)c1 | > 2500 | > 2500 |
| Cc1ccc(C#Cc2cc(-c3nn(-c4nc(C(=O)O)cs4)c(CCC4CC4)c3Cc3ccc(S(N)(=O)=O)c(F)c3)ccc2F)s1 | > 2500 | > 2500 |
| Cc1ccc(C#Cc2cccc(-c3nn(-c4nc(C(=O)O)cs4)c(CCC4CC4)c3Cc3ccc(S(N)(=O)=O)c(F)c3)c2)s1 | > 2500 | > 2500 |
| Cc1ncc(C#Cc2cc(-c3nn(-c4nc(C(=O)O)cs4)c(CC4CC4)c3Cc3ccc(S(N)(=O)=O)c(F)c3)ccc2F)s1 | > 2500 | > 2500 |
| Cc1ccc(/C=C/c2cccc(-c3nn(-c4nc(C(=O)O)cs4)c(CC4CC4)c3Cc3ccc(S(N)(=O)=O)c(F)c3)c2)s1 | > 2500 | > 2500 |
| NS(=O)(=O)c1ccc(Cc2c(-c3cccc(C#Cc4ccc(Cl)s4)c3)nn(-c3nc(C(=O)O)cs3)c2CC2CC2)cc1F | > 2500 | > 2500 |
| NS(=O)(=O)c1ccc(Cc2c(-c3cccc(-c4ccccc4)c3)nn(-c3nc(C(=O)O)cs3)c2C2(C(F)(F)F)CC2)cc1 | > 2500 | > 2500 |
| NS(=O)(=O)c1ccc(Cc2c(-c3cccc(C#Cc4ccc(C(F)F)s4)c3)nn(-c3nc(C(=O)O)cs3)c2CC2CC2)cc1F | > 2500 | > 2500 |
| NS(=O)(=O)c1ccc(Cc2c(-c3cccc(C#Cc4ccc(C5CCC5)s4)c3)nn(-c3nc(C(=O)O)cs3)c2CCC2CC2)cc1F | > 2500 | > 2500 |
| CC(C)CC#Cc1cc(-c2nn(-c3nc(C(=O)O)cs3)c(CC3CC3)c2Cc2ccc(S(N)(=O)=O)c(F)c2)ccc1F | > 2500 | > 2500 |
| NS(=O)(=O)c1ccc(Cc2c(-c3ccc(F)c(C#CC4CC4)c3)nn(-c3nc(C(=O)O)cs3)c2CC2CC2)cc1F | > 2500 | > 2500 |
| NS(=O)(=O)c1ccc(Cc2c(-c3ccc(F)c(C#CCC4CCCO4)c3)nn(-c3nc(C(=O)O)cs3)c2CC2CC2)cc1F (stereo unspecified) | > 2500 | > 2500 |
| Cc1ccc(C#Cc2cccc(-c3nn(-c4nc(C(=O)O)cs4)c(CCC4CC4)c3Cc3ccc(S(N)(=O)=O)c(F)c3)c2)o1 | > 2500 | > 2500 |
| NS(=O)(=O)c1ccc(Cc2c(-c3ccc(F)c(C#CC4CCCC4)c3)nn(-c3nc(C(=O)O)cs3)c2CC2CC2)cc1F | > 2500 | > 2500 |
